Results on four compounds are retold here after US8742134B2, “7-azoniabicyclo[2.2.1]heptane derivatives, methods of production, and pharmaceutical uses thereof” (dated 2014).

In this test the test system is methacholine-induced bronchoconstriction in rat. Nature of the test: Rat bronchoprotection protocol, MCh dose response (inhalation). As to conditions: 24 h post inhalation, nebulized drug solution.
Consider `C[N+]1(C)C2CC[C@H]1[C@H](OC(=O)[C@@](O)(c1ccccc1)C1CCCC1)C2`, for which the “Potency (ID50)” value was more than 100 µg/mL.

As for `C[N+]1(C)C2CC[C@H]1[C@@H](OC(=O)[C@@](O)(c1ccccc1)C1CCCC1)C2`, the “Potency (ID50)” value was more than 100 µg/mL.

As to `C[N+]1(C)C2CC[C@@H]1[C@@H](OC(=O)[C@@](O)(c1ccccc1)C1CCCC1)C2`, the “Potency (ID50)” value was more than 100 µg/mL.

With `C[N+]1(C)C2CC[C@@H]1[C@H](OC(=O)[C@@](O)(c1ccccc1)C1CCCC1)C2`, the “Potency (ID50)” value was more than 100 µg/mL.
